Data published in ChEMBL document CHEMBL1129309, “Asymmetric syntheses, opioid receptor affinities, and antinociceptive effects of 8-amino-5,9-methanobenzocyclooctenes, a new class of structural analogues of the morphine alkaloids” (J Med Chem, 1996).

Test system: Mus musculus
Test: Percent activity against delta selective antinociception when given icv injection at a dose of 30 nmol 20 min before mouse tail flick test

SMILES: CN(C(=O)Cc1ccc(Cl)c(Cl)c1)C1CCCCC1N1CCCC1 (stereo unspecified)
- Activity: 57%
